Key:
[1] = Selectivity ratio of EC50 for dog PPARalpha to EC50 for human PPARalpha
[2] = Selectivity ratio of EC50 for rat PPARalpha to EC50 for human PPARalpha
[3] = Selectivity ratio of EC50 for mouse PPARalpha to EC50 for human PPARalpha
[4] = Selectivity ratio of EC50 for hamster PPARalpha to EC50 for human PPARalpha
Homo sapiens [5] = organism: Homo sapiens; assay: Selectivity ratio of EC50 for human PPARgamma to EC50 for human PPARalpha
Homo sapiens [6] = organism: Homo sapiens; assay: Selectivity ratio of EC50 for human PPARdelta to EC50 for human PPARalpha

| Ratio EC50 [1] | Ratio EC50 [2] | Ratio EC50 [3] | Ratio EC50 [4] | Ratio EC50 (Homo sapiens [5]) | Ratio EC50 (Homo sapiens [6]) | SMILES |
| --- | --- | --- | --- | --- | --- | --- |
| 2 | 450 | 600 | 80 | – | – | Cc1nc(-c2ccc(Cl)cc2)sc1C(=O)N[C@H]1CCCN(c2cccc(C(=O)O)c2)C1 |
| – | – | – | – | > 800 | > 800 | Cc1nc(-c2ccc(Cl)cc2)sc1C(=O)NC1CCCN(c2cccc(C(=O)O)c2)C1 (stereo unspecified) |

From ChEMBL document CHEMBL1933028, “Discovery of cyclic amine-substituted benzoic acids as PPARα agonists” (Bioorg Med Chem Lett, 2012)
